Rows were chosen to be rich in hits. Some 1.7% of all compounds tested hit in one or more screens of this group.
Dyrk1A ADPGlo: rat Dyrk1A kinase inhibitors, primary screen, biochemical, single point, plate reader; inhibition, % at 12.5 µM; Dual specificity tyrosine-phosphorylation-regulated kinase 1A (Rattus norvegicus), Q63470; ADP-Glo luminescence, NFATc1 peptide; AID 504441, 2011; 310,000 tested, 0.43% active; in the data active means inhibition above about 50%;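 further: plate controls were vehicle with enzyme for no effect and no enzyme for full effect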
Yeast UUG start: alters start codon recognition fidelity in yeast. S. cerevisiae UUG-firefly luciferase reporter, luminescence/redox ratio. AID 602363. activity score, % at 18.7 µM. hit rate 0.13% among 350,000;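 active = replicate mean at a twofold rise or more, about +100% in these data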;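 note: firefly luciferase made from a UUG start codon reports start codon fidelity; reporter light over untreated wells divided by growth signal over untreated wells; some hits fall short of that in this replicate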
dFosB act: activators of delta FosB homodimer, primary screen, biochemical, fluorescence polarization, TAMRA-CDK5 oligo, single point. purified delta FosB; percent of positive-control signal above neutral wells. 340,000 tested, 0.99% active. Protein FosB (Mus musculus), P13346. activation, % at 25 µM. AID 493131, 2011;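 active means mean activation above about 17%, with every replicate also reaching it, limit read from the data, passing the limit was not always enough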
CAL PDZ FP-1: untagged CAL PDZ binding inhibitors, primary screen, biochemical, fluorescence polarization, HTS; 300,000 tested, 0.92% active; inhibition, % at 24.9 µM; purified CAL PDZ, TMR-peptide fluorescence polarization, 1 h; Golgi-associated PDZ and coiled-coil motif-containing protein (Homo sapiens), Q9HD26; AID 602252, 2012;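 active means mean inhibition of at least 30% with at least half of replicates also reaching 30%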;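 further: 0% = DMSO neutral control and 100% = excess unlabeled competitor peptide PRC23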
CAL PDZ FP-2: CAL PDZ peptide-binding inhibitors, primary screen, biochemical, fluorescence polarization, Cer-tagged CAL PDZ, HTS | Golgi-associated PDZ and coiled-coil motif-containing protein (Homo sapiens), Q9HD26 | purified CAL PDZ, TMR-peptide fluorescence polarization, 1 h | inhibition, % at 20 µM | 330,000 tested, 0.02% active | AID 504414, 2011;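 active means highest replicate inhibition of at least 40%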;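 further: plate controls were DMSO neutral control wells for no effect and unlabeled competitor peptide control wells for full effect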
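Read-out basis: mP drop reported as inhibition | Assay system: Tagged CAL PDZ protein CerCALP, purified | Benchmarks: Unlabelled peptide for full inhibition, DMSO wells as neutral | Schedule: 1 h incubation at room temperature before polarization reading | Buffer or medium: Sodium phosphate/NaCl buffer pH 7.4 with TCEP, IgG, Thesit | Doses: Single point, 20 µM | Measured by: Fluorescence polarization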
CDK5 inh: inhibitors of human CDK5/p35 kinase, primary screen, biochemical, single concentration | inhibition, % at 10 µM | 330,000 tested, 0.01% active | Cyclin-dependent kinase 5 (Homo sapiens) + Cyclin-dependent kinase 5 activator 1 (Homo … | Recombinant CDK5/p35, ADP-Glo luminescence, 60 min;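 active means highest replicate inhibition of at least 50% and at least 75% of replicates reaching 50%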;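 further: plate controls were DMSO neutral control for no effect and GW8510 at 10 µM for full effect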
An asterisk follows results filed as active; · = no result.

CAL PDZ FP-1	Yeast UUG start	CAL PDZ FP-2	dFosB act	CDK5 inh	Dyrk1A ADPGlo	molecule
·	3	·	·	·	·	CN(C)CCCNC(=O)C[C@@H]1CC[C@@H]2[C@H](COc3ccc(NC(=O)C4CCC4)cc3C(=O)N2C)O1
·	13	·	·	·	·	C/C=C/c1ccc([C@H]2[C@@H](CN(C)C(=O)C3CC3)N(C(=O)CC)[C@H]2CO)cc1
·	-8	-1	34*	-3	0	Cc1ccc(OCC(=O)NNC(=O)c2ccc(NC(=O)C3CC3)cc2)c(C)c1
35*	-37	-2	-35	3	8	O=C(Nc1nccs1)c1ccc2ccccc2n1
-4	-24	-2	-28	-1	2	Cc1csc(NC(=O)c2ccc3ccccc3n2)n1
·	41	·	·	·	·	O=C(C1CCC1)N1C[C@H]2[C@@H](c3ccccc31)[C@H](CO)N2S(=O)(=O)c1ccccc1
·	10	·	·	·	·	CNC(=O)C[C@H]1CC[C@@H]2[C@@H](COc3ccc(NS(=O)(=O)c4ccc(F)cc4)cc3C(=O)N2C)O1
46*	-9	7	-5	0	-4	Cc1ccc(OCC(=O)N2CC(C)OC(C)C2)c([N+](=O)[O-])n1 (configuration not stated)
58*	-17	-1	-2	·	2	Cc1ccc2[nH]c3c(c2c1)CN(C(=O)CN1CCCc2ccccc21)CC3
57*	1	-1	-3	1	-2	CN(CC1COc2ccccc2O1)C(=O)c1cc(COc2c(F)cccc2F)on1 (configuration not stated)
0	-18	-1	-3	0	-3	CN(CC1COCCO1)C(=O)c1cc(COc2c(F)cccc2F)on1 (configuration not stated)
·	-17	·	·	·	·	O=C(CC1CC1)Nc1ccc2c(c1)[C@@H]1C[C@H](CC(=O)NC3CCCCC3)O[C@H](CO)[C@@H]1O2
49*	-10	-1	-3	1	8	O=C(C1CCN(S(=O)(=O)c2cnc[nH]2)CC1)N1CCN(c2ccc([N+](=O)[O-])cc2)CC1
·	4	·	·	·	·	O=C(C1CC1)N1CCN(c2ccc([N+](=O)[O-])cc2)CC1
48*	2	0	-2	2	0	CCn1c(SCC(=O)Nc2cc(C)on2)nnc1-c1cccc(C)c1

Carrying on:
CAL PDZ FP-1	Yeast UUG start	CAL PDZ FP-2	dFosB act	CDK5 inh	Dyrk1A ADPGlo	molecule
65*	·	·	-8	-1	7	O=C(CSc1ccc(-c2cccc([N+](=O)[O-])c2)nn1)N1CCCC1
56*	-14	0	2	3	-1	Cc1cc(NC(=O)CSc2ccc(-c3cccc([N+](=O)[O-])c3)nn2)no1
-8	-3	-2	-1	0	1	CCn1c(SCC(=O)Nc2cc(C)on2)nnc1-c1ccc(C)cc1
·	10	·	·	·	·	C[C@H](CO)N1C[C@H](C)[C@H](CN(C)C)Oc2cc(C#CC3CCCCC3)ccc2S1(=O)=O
·	-13	·	·	·	·	Cc1ccc(S(=O)(=O)N(C)C[C@@H]2OCCCC[C@H](C)Oc3ccc(NC(=O)NC4CCCCC4)cc3C(=O)N([C@H](C)CO)C[C@@H]2C)cc1
33*	11	-1	-2	1	4	Cc1ccc(S(=O)(=O)N2CCOC2CNC(=O)C(=O)NCCc2ccccc2)cc1 (configuration not stated)
-2	-35	0	0	0	-2	Cc1ccc(S(=O)(=O)N2CCOC2CNC(=O)C(=O)NCCCc2ccccc2)cc1 (configuration not stated)
-3	·	-2	-1	1	-6	Clc1cccc(Cl)c1/C=N/Nc1c(Cl)cncc1Cl
-1	-8	-1	-22	52*	6	Clc1cncc(Cl)c1N/N=C/c1ccncc1
-6	·	1	-7	-1	-1	CCNC(=S)N1CCC(C(O)(c2ccccc2)c2ccccc2)CC1
79*	-4	-2	-11	1	-11	NC(=O)NCC(=O)N1CCC(C(O)(c2ccccc2)c2ccccc2)CC1
43*	-4	-2	-5	0	11	O=C(CSc1nnnn1-c1ccccc1)c1ccc(O)cc1O
-2	·	1	64*	20	·	CN(C)CCNc1ccc2ncn3c4ccc(O)cc4c(=O)c1c23
71*	-16	·	0	1	-5	CSc1nsc(SCC(=O)NCc2ccc(C)cc2)n1
1	-16	-1	4	1	1	CSc1nsc(SCC(=O)NCc2ccccc2)n1

Next part:
CAL PDZ FP-1	Yeast UUG start	CAL PDZ FP-2	dFosB act	CDK5 inh	Dyrk1A ADPGlo	molecule
·	0	·	·	·	·	Cc1ccc(S(=O)(=O)N(C)C[C@H]2Oc3ccc(NS(=O)(=O)c4ccc(Cl)cc4)cc3CC(=O)N([C@H](C)CO)C[C@H]2C)cc1
·	16	·	·	·	·	C[C@@H]1CCCCO[C@H](CN(C)C(=O)CCCN(C)C)[C@@H](C)CN([C@@H](C)CO)C(=O)c2cc(N(C)C)ccc2O1
46*	3	0	-7	2	·	COc1ccc(S(=O)(=O)NCCC(=O)OCC(=O)c2ccc[nH]2)cc1[N+](=O)[O-]
61*	-6	0	3	-2	-1	COc1cc(C(=O)NCC(=O)OCC(=O)c2ccc[nH]2)cc(OC)c1OC
·	3	·	·	·	·	O=C(CCN1CCCCC1)N[C@@H]1CC[C@H](CCNS(=O)(=O)c2ccc(Cl)cc2)O[C@@H]1CO
-10	-14	-10	36*	11	18	COc1cccc(/C=C2/Sc3ccc(C(=O)NCCN4CCCC4)cc3NC2=O)c1
-4	-12	-5	27*	1	4	COc1ccc(/C=C2\Sc3ccc(C(=O)NCCN4CCCCCC4)cc3N(C)C2=O)cc1
-11	-22	-9	39*	1	-2	CCN1CCCC1CNC(=O)c1ccc2c(c1)NC(=O)/C(=C\c1ccc(C)cc1)S2 (configuration not stated)
·	-16	·	·	·	·	O=C1Nc2cc(C(=O)NCCN3CCCCCC3)ccc2S/C1=C/c1ccccc1F
-1	-21	-3	8	·	·	Cc1ccc(/C=C2/Sc3ccc(C(=O)NCCN4CCOCC4)cc3NC2=O)cc1
1	2	-2	-26	-1	-1	COc1ccc(/C=C2\Sc3ccc(C(=O)NC4CC4)cc3N(C)C2=O)cc1OC
·	-15	·	·	·	·	C[C@H]1CCCCO[C@@H](CN(C)C(=O)NC2CCCCC2)[C@@H](C)CN([C@@H](C)CO)C(=O)c2cc(NC(=O)CCC(F)(F)F)ccc2O1
64*	·	-1	-4	-2	0	CC(=O)NC(=S)Nc1ccc(N2CCOCC2)c(S(=O)(=O)Nc2cc(Cl)ccc2Cl)c1
